This note sets out measurements from patent US20110189164A1, “Peptide Stabilizer Compounds and Screening Method” (Isogenica Ltd, priority 2005, published 2011).

The target of this data set is Human Thrombin (Homo sapiens, UniProt P00734). The conditions noted are these: for Thrombin resistant: fifth round selected peptides, 1 hour incubation +/- Human Thrombin 0.1 unit/ml, anti-FLAG ELISA OD450. How it is done:
The values represent ((OD450 nm reading after incubation with thrombin)/(OD450 nm reading after incubation without thrombin)) expressed as a percentage. 100% indicates complete protection from thrombin cleavage.
Recovered DNA from the fifth round of selection was amplified using PCR, purified and digested with NotI and NcoI. The DNA was then ligated into a similarly digested M13 gpIII phagemid vector and transformed into E. coli XL-1 blue cells, and plated on 2% glucose, 2×TY, 100 μg/ml ampicillin plates. Individual colonies were grown for the production of phage particles as previously described (Odegrip et al Proc. Natl. Acad. Sci USA 101 2806-2810 (2004)). NUNC Maxisorp plates were coated with 100 ng/well of anti-FLAG M2 antibody in PBS overnight at 4° C. ELISA assays were performed with bound phage being incubated for 1 hour in 2% BSA in PBS, +/−Human Thrombin (0.1 unit/ml). The assay was developed with SureBlue TMB peroxidase substrate (Insight Biotechnology, Middlesex, UK) and read at 450 nm.
In general terms: In an ELISA, binding on a coated surface is turned into a signal by an enzyme label.

For AAPDETTTPNRD [SEQID 014], the Thrombin resistant result is reported as “resistant”.

On to ATGPIPHTPQGS [SEQID 023], for which the Thrombin resistant result is “resistant”.

As for DRSRASTRRDRH [SEQID 021], the Thrombin resistant result is “resistant”.

As for “DYKDDDRSGGSGLGPRSG [SEQID 002, reference compound]”, the “anti-FLAG binding after one hours incubation in thrombin” value (control FLAG epitope-thrombin substrate sequence) is “no anti-FLAG binding”.

For the sequence ESPRPPARPPND [SEQID 005], the Thrombin resistant result is reported as “resistant”.

Take GRPATAPCTHGN [SEQID 020]: the Thrombin resistant result was “resistant”.

In the case of HDGRPPQHHHPH [SEQID 016], the Thrombin resistant result is listed as “resistant”.

For the sequence HNVNPNQPHNDT [SEQID 009], the Thrombin resistant entry is recorded as “resistant”.

In the case of HPHHPSNQAPTD [SEQID 013], the Thrombin resistant result is on record as “resistant”.

Regarding HYPPPSTPYTTD [SEQID 003], the Thrombin resistant entry is reported as “resistant”.

For the sequence MTMGTRPTRDTH [SEQID 017], the Thrombin resistant entry is “resistant”.

For NHPTTNDGPSVK [SEQID 006], the Thrombin resistant entry is “resistant”.

On to PATNPHTNSNAN [SEQID 008], for which the Thrombin resistant result is given as “resistant”.

Take PNRNFQQNTNHN [SEQID 007]: the Thrombin resistant result is on record as “resistant”.

For the sequence PTMTRPSNTEAE [SEQID 011], the Thrombin resistant entry is given as “resistant”.

On to PTPSHSTHRDPE [SEQID 012], for which the Thrombin resistant entry is “resistant”.

In the case of PTPTNPPQSAAD [SEQID 004], the Thrombin resistant result is recorded as “resistant”.

With QKPNHDTERELD [SEQID 033], the Thrombin resistant entry is “resistant”.

In the case of QPHNHPRPIKQH [SEQID 026], the Thrombin resistant entry is recorded as “resistant”.

As for RAGELGAPADPD [SEQID 032], the Thrombin resistant entry was “resistant”.

For the sequence RFVSDHNITAAD [SEQID 025], the Thrombin resistant entry is on record as “resistant”.

Regarding SRHRTNAGETDH [SEQID 022], the Thrombin resistant result is reported as “resistant”.

Regarding TDCSHNPTDPCE [SEQID 031], the Thrombin resistant entry is reported as “resistant”.

For TDPPANDNAQPH [SEQID 024], the Thrombin resistant entry is “resistant”.

For the sequence TNFSKDEQPTPD [SEQID 019], the Thrombin resistant result is reported as “resistant”.

As to VNFAATSSNDRD [SEQID 015], the Thrombin resistant entry is listed as “resistant”.

Take VNKQTTASQAHH [SEQID 018]: the Thrombin resistant result was “resistant”.

Consider VPTSTYAITDPT [SEQID 010], for which the Thrombin resistant result is on record as “resistant”.
